Data: patent publication US6913892

Sequences of proteins named here, by UniProt entry; tags and fusion partners are left off. A change or cut given only in a name is not applied to a line headed by its entry.
UniProt P49146, whole entry: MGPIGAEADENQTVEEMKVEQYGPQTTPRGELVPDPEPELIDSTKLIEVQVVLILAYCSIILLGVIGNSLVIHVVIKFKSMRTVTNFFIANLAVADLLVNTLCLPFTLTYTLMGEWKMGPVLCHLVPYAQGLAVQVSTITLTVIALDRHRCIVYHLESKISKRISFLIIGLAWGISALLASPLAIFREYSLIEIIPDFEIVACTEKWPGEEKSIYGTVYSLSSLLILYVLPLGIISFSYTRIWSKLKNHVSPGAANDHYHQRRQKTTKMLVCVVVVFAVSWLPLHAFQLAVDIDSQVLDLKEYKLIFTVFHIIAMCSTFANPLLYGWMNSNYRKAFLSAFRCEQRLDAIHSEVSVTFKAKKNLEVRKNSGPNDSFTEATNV

Target: human Y2 receptor (human) (UniProt P49146)
Test: 125I-PYY displacement, COS-7 membranes

Row | Ki | Substance
1 | 4.2 nM | porcine NPY18-36 (from UniProt P01304 27-45) (peptide)
2 | 3.6 nM | porcine NPY20-36 (from UniProt P01304 29-45) (peptide)
